Results on 26 compounds are retold here after PubChem BioAssay AID588391 (Broad Institute, 2011).

Amino acid sequences for entries named in this document (tags omitted).
UniProt P07237, whole entry: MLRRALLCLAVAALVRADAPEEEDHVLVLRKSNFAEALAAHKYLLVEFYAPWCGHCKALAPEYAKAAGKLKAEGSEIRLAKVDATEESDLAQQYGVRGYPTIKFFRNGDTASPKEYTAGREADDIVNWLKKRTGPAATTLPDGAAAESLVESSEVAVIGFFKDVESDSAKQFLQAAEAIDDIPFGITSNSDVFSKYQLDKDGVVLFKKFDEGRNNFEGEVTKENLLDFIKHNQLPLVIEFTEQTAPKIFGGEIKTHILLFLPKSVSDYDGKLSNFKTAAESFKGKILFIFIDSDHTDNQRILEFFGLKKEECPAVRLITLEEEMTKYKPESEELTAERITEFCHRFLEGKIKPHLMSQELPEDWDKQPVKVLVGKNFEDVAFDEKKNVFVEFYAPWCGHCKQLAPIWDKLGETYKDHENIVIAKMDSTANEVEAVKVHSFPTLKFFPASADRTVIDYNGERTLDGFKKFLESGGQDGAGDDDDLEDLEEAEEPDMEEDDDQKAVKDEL

One may read the inhibition as the drop in the measured response relative to a control, in per cent.

This is a selection; strong and weak results do not stand in their true shares. Some tests of the compounds listed are not included; inactive here does not mean inactive elsewhere. Activity calls are given as the source filed them.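 How the source made its calls: active means mean inhibition across replicates of 30% or more, whatever share of single replicates reach that level; inconclusive means mean inhibition below 30% while every single replicate reaches 30%; inactive means the rest.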

This experiment concerns the target Protein disulfide-isomerase (Homo sapiens) (UniProt P07237). The experiment can be described thus: blockers of PDI-driven insulin aggregation – biochemical, turbidity, single point, plate reader, primary screen (AID 588391).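 Further: absorbance from insulin aggregation driven by PDI reduction with DTT.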 The settings on record: A650, 90 min, at 10 µM, active compounds read high.
Consider `COc1ccc(C(=O)NCC2(N(C)C)CCCCC2)cc1`, for which the inhibition was inactive: -3.98%. Take `Cc1cc(C(=O)NCC2(N3CCCCC3)CCCCC2)ccc1[N+](=O)[O-]`: the inhibition is inactive: -69.8%. Take `CCN1CCCC(OC(=O)C2(O)c3ccccc3C=Cc3ccccc32)C1` (stereo unspecified): the inhibition was inactive: -2.31%. As for `O=C(NCC1(N2CCCCC2)CCCCC1)c1cccc(Br)c1`, the inhibition is inactive: 7.41%. The figure for `C=CCN1CCN(CCOC(=O)C(O)(c2ccccc2)c2ccccc2)CC1` is inactive: -1.68%; for `O=C(NCC1(N2CCCCC2)CCCCC1)c1cc(F)c(F)cc1Cl` it is inactive: -40.8%. For the compound `Cc1ccccc1C(=O)NCC1(N2CCCCC2)CCCCC1`, the inhibition is inactive: -14.4%. `CN(C)C1CCCC1OC(=O)C(O)(c1ccccc1)c1ccccc1` (stereo unspecified): the inhibition is inactive: -5.33%. Take `CN(C)c1ccc(C(=O)NCC2(N(C)C)CCCCC2)cc1`: the inhibition is inactive: 13.1%.

`Cc1ccc(C(=O)NCC2(N3CCCCC3)CCCCC2)cc1`: the inhibition is inactive: 3.56%. As to `CCN(CC)CC(C)C(C)OC(=O)C(O)(c1ccccc1)c1ccccc1` (stereo unspecified), the inhibition is inactive: 3.19%. `COc1cc(SC)ccc1C(=O)NCC1(N(C)C)CCCCC1`: the inhibition was inactive: -1.52%. For `CC(C)N1C(=O)CC2(CCN(CCOC(=O)C(O)(c3ccccc3)c3ccccc3)CC2)C1=O`, the inhibition is inactive: -2.01%.

For the compound `CN1[C@@H]2CC[C@H]1CC(OC(=O)C(O)(c1ccccc1)c1ccccc1)C2` (stereo partly specified), the inhibition is inactive: -2.13%. Turning to `O=C(NCC1(N2CCCCC2)CCCCC1)c1cc([N+](=O)[O-])ccc1Cl`, the inhibition is inactive: 8.09%. The figure for `CC(C)Oc1ccc(C(=O)NCC2(N(C)C)CCCCC2)cc1` is inactive: -17.1%; for `O=C(OCCN1CCCC1)C(O)(c1ccccc1)c1ccccc1` it is inactive: -0.846%. `CN(C)c1cccc(C(=O)NCC2(N(C)C)CCCCC2)c1`: the inhibition was inactive: 0.72%.

Turning to `C=C(C)C#CC(O)(C(=O)OC1CCN(C)CC1)c1ccccc1` (stereo unspecified), the inhibition is inactive: 3.68%. On to `COc1ccc(Br)c(C(=O)NCC2(N3CCCCC3)CCCCC2)c1`, for which the inhibition is inactive: -1.63%. As for `O=C(OC1CN2CCC1CC2)C(CO)(c1ccccc1)c1ccccc1` (stereo unspecified), the inhibition is inactive: 2.69%. Take `O=C(NCC1(N2CCCCC2)CCCCC1)c1cccc(Cl)c1`: the inhibition is inactive: 6.54%. As for `COc1cccc(C(=O)NCC2(N3CCCCC3)CCCCC2)c1`, the inhibition is inactive: 8.05%. Take `COc1ccc(Cl)cc1C(=O)NCC1(N(C)C)CCCCC1`: the inhibition was inactive: 7.33%.

`COc1cc(C(=O)NCC2(N(C)C)CCCCC2)c([N+](=O)[O-])cc1OC`: the inhibition is inactive: -0.393%. Regarding `CN(C)C1(CNC(=O)c2ccc(Br)cc2)CCCCC1`, the inhibition is inactive: 14.8%.
